The assay deals with T1, Cholesteryl ester transfer protein (Oryctolagus cuniculus, UniProt P22687).
T1 sequence (P22687 whole entry): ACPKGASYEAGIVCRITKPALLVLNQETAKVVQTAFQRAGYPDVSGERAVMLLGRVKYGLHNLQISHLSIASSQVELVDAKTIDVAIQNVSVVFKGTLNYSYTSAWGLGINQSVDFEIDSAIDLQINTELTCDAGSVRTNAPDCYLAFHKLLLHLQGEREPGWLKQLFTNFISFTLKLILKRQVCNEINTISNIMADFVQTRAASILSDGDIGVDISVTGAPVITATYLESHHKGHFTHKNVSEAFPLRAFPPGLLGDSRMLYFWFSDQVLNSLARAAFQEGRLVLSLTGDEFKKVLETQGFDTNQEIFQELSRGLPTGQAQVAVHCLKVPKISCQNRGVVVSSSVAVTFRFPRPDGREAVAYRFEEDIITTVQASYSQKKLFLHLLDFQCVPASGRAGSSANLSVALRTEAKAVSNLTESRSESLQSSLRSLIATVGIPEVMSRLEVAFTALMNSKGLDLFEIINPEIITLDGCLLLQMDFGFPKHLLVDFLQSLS
As to the kind of experiment: Inhibition of CETP in rabbit serum after 1 hr by fluorescent cholesteryl esters transfer assay.

We go through one compound from ChEMBL document CHEMBL1165848, “Discovery of new cholesteryl ester transfer protein inhibitors via ligand-based pharmacophore modeling and QSAR analysis followed by synthetic exploration” (Eur J Med Chem, 2010).

pIC50: −log10 of the molar value.

Turning to `Cn1cccc1-c1cccc(CN(CC(O)C(F)(F)F)c2cccc(Oc3ccccc3)c2)c1` (stereo unspecified), the pIC50 is 5.17.

By pIC50 is commonly meant the negative decadic logarithm of the IC50, by convention in mol/L. A high value points to a small IC50.
